Measured values from ChEMBL document CHEMBL1128159, “Synthesis and evaluation of diacylhydrazines as inhibitors of the interleukin-1 converting enzyme (ICE)” (Bioorg Med Chem Lett, 1995).

Molecular target: T1, Caspase-1 (Homo sapiens) (UniProt P29466)
T1 sequence (whole entry): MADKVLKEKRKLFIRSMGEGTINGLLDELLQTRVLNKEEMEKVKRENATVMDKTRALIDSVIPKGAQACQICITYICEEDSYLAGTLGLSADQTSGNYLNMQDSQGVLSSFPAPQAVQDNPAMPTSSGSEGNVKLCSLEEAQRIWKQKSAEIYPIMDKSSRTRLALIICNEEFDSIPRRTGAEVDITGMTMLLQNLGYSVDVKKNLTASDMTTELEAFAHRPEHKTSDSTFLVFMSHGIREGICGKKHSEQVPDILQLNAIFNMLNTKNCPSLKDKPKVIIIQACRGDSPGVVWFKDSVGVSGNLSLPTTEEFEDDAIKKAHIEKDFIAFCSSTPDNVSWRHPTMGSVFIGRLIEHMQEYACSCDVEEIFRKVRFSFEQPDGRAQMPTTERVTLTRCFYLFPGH
Test: Compound was tested for inhibition of IL-1 beta converting enzyme by measuring second order rate of inactivation

second-order inactivation rate constant (kobs/[I]): 280000 M⁻¹ s⁻¹
SMILES: CC(C)[C@H](NC(=O)OCc1ccccc1)C(=O)N[C@@H](C)C(=O)NC(CC(=O)O)C(=O)COc1cc(C(F)(F)F)nn1-c1ccccc1 (stereo partly specified)
